By UniProt entry, the sequences of proteins in these tests, tags left out. Where a name states a change or a piece, a line headed by the entry shows the natural chain unless it says otherwise.
UniProt O60894: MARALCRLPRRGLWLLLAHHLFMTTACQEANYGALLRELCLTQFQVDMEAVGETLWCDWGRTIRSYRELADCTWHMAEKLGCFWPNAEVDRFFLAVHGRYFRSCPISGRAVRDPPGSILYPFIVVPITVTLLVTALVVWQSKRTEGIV
UniProt Q16602: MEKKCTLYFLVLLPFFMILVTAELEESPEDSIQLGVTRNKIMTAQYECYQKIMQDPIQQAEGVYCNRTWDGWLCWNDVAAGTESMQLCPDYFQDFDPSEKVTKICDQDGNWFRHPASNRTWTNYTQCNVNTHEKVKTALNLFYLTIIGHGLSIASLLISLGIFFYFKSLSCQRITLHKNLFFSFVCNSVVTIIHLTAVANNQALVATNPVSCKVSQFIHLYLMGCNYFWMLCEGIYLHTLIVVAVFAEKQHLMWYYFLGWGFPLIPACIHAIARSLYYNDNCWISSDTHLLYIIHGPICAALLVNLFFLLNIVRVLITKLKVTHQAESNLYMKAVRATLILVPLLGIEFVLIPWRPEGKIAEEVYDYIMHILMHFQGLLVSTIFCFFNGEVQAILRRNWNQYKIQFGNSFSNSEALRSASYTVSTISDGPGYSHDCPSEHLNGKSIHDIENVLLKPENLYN

In ChEMBL document CHEMBL1142953, “Calcitonin gene-related peptide analogues with aza and indolizidinone amino acid residues reveal conformational requirements for antagonist activity at the human calcitonin gene-related peptide 1 receptor” (J Med Chem, 2007):

Target: Calcitonin gene-related peptide type 1 receptor (Homo sapiens, UniProt O60894+Q16602)
Experiment: Antagonist activity against human CGRP1 expressed in HEK293 cells assessed as inhibition of human alpha-CGRP-promoted cAMP production
Type: functional, cell-based
Outline: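 HEK293 cells stably expressing CRLR, seeded at 5000 cells/well. Cells preincubated with peptide analogues for 15 min at 37 °C, then stimulated with 0.5 nM α-CGRP for 15 min at 37 °C. cAMP measured with a fluorescence-based kit. Peptides tested up to 100 µM. At least three independent experiments in triplicate, analysed by nonlinear curve fitting; mean ± SEM.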

## CC(C)[C@H](NC(=O)[C@H](CC(=O)O)NC(=O)[C@@H](NC(=O)[C@@H]1CCCN1C(=O)[C@@H](NC(=O)[C@@H](N)Cc1ccccc1)C(C)C)[C@@H](C)O)C(=O)NCC(=O)N1CCC[C@H]1C(=O)N[C@@H](Cc1ccccc1)C(=O)N[C@@H](C)C(=O)N[C@@H](Cc1ccccc1)C(N)=O
  IC50: 708 nM
